Experimental data from ChEMBL document CHEMBL2216751, “PI3Kδ and PI3Kγ as targets for autoimmune and inflammatory diseases” (J Med Chem, 2012).

The chains behind the UniProt entries cited, without tags or fusion partners. Where a name states a change or a piece, a line headed by the entry shows the natural chain unless it says otherwise.
UniProt P48736: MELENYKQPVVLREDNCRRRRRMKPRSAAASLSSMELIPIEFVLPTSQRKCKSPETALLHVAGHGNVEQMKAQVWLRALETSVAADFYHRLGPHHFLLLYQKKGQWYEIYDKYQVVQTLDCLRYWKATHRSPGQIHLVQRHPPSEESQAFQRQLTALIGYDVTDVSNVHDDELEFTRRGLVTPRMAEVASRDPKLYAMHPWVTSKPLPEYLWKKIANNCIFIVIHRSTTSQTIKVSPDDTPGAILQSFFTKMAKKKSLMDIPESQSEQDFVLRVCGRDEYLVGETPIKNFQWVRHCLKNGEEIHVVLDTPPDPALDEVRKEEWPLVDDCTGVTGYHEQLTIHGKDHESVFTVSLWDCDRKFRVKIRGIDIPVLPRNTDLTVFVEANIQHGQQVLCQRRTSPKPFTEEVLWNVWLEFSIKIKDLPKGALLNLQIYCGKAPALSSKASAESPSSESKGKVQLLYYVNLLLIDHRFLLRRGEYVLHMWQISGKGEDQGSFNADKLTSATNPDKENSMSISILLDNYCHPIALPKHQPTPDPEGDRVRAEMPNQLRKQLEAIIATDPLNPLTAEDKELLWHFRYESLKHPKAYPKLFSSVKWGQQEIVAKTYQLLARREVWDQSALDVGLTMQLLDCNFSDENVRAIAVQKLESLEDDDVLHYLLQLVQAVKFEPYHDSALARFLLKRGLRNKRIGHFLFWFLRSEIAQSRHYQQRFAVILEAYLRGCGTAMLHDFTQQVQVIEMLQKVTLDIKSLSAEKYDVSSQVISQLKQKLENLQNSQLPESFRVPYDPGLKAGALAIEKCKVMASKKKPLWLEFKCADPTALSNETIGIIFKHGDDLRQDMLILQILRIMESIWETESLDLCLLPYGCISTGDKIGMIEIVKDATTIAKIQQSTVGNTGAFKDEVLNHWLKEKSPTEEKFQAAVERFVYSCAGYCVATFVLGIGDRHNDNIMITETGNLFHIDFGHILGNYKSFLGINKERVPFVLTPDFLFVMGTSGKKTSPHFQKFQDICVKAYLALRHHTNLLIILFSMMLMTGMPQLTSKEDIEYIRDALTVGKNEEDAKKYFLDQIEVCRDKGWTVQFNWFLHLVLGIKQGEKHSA

Legend:
[1] = target: T1, Phosphatidylinositol 4,5-bisphosphate 3-kinase catalytic subunit delta isoform (Homo sapiens, UniProt O00329)
T1 sequence (O00329 whole entry): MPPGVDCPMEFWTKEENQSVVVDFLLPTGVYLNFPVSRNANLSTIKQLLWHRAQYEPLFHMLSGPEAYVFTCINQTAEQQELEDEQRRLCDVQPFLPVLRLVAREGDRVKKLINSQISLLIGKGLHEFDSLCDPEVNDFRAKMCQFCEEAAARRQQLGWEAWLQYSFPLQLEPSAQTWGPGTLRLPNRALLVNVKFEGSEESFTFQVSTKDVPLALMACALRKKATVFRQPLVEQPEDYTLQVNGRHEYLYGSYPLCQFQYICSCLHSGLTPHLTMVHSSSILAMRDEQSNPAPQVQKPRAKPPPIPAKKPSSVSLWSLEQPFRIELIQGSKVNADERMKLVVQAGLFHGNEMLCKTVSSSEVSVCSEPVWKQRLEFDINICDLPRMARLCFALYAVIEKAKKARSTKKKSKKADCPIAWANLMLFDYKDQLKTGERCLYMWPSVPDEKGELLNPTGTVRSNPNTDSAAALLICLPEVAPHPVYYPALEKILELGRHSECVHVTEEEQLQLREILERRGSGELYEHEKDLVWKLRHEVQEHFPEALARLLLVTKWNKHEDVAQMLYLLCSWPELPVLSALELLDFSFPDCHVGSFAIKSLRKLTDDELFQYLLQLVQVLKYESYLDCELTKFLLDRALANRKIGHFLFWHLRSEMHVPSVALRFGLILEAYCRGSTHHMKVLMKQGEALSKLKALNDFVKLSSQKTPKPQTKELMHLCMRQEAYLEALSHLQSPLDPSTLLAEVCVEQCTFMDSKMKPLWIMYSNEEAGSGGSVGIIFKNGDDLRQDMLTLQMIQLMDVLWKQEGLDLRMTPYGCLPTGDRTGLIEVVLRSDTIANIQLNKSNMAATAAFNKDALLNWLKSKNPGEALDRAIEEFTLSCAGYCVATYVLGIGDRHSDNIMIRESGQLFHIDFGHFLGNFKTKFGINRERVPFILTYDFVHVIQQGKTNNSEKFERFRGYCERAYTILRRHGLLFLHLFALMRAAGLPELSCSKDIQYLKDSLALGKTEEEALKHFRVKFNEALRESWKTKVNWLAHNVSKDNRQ

[2] = target: T1, Phosphatidylinositol 4,5-bisphosphate 3-kinase catalytic subunit delta isoform; assay: Inhibition of PI3Kdelta in human whole blood assessed as inhibition of CD69 production in B lymphocyte by immunoassay
[3] = target: Phosphatidylinositol 4,5-bisphosphate 3-kinase catalytic subunit gamma isoform (Homo sapiens, UniProt P48736); assay: Inhibition of PI3Kgamma using phosphatidylinositol as substrate by gamma33P[ATP] incorporation assay

SMILES | IC50 [1] [nM] | other results
CC(Nc1ncnc2[nH]cnc12)c1cc(Cl)c2ccnnc2c1-c1cccc(F)c1 (centres undefined) | < 50 | –
CCc1nc2ccccc2n1-c1nc(N2CCOCC2)c2nc(OC3CN(C(=O)C(C)C)C3)n(C)c2n1 | – | IC50 [2]: 5.2 nM
Cc1csc2nc([C@H](C)Nc3ncnc4[nH]cnc34)c(-c3cccc(F)c3)c(=O)n12 [DEZAPELISIB] | < 50 | –
O=c1cc(N2CCOCC2)oc2c(-c3ccccc3)cccc12 [LY-294002] | – | IC50 [3]: 6600 nM
